# Measured values taken from PubChem BioAssay AID2205 (University of Pittsburgh Molecular Library Screening Center, 2009).
# Only a part is listed here, and it is no random draw. The source made the active and inactive calls.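 How the source made its calls: active means plate Z-score above 3 for both tubulin-high and condensed-nucleus cell shares, with cell loss under 80%, at 10 µM; inactive means the rest, inconclusive results apart.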
# Assay: tubulin staining increase by stabilizing compounds – imaging, high-content imaging, primary screen (AID 2205)
# Conditions: HeLa tubulin immunostaining HCS, 24 h; at 10 µM; hits give high values; share of cells brighter than vehicle mean+2SD
row,SMILES,% tubulin-high responders
1,N/C(=N\O)c1c(N)no[n+]1[O-],inactive: 5.1%
2,O=C(OC1CN2CCC1CC2)C1c2ccccc2C=Cc2ccccc21 (stereo not given),inactive: 4.18%
3,COc1ccc(C(=O)NCC2(N3CCOCC3)CCCCC2)cc1OC,inactive: 1.45%
4,c1ccc(CN2CCC(Nc3ccccc3)CC2)cc1,inactive: 3.27%
5,N#Cc1ccc(C(=O)NCC2(N3CCCCC3)CCCCC2)cc1,inactive: 1.41%
6,CCN1CCC(Nc2cccc(F)c2)CC1,inactive: 1.78%
7,CN(C)c1ccc(C(=O)NCC2(N3CCCCC3)CCCCC2)cc1,inactive: 2.21%
8,CCC(CO)(C(=O)OC1CN2CCC1CC2)c1ccccc1 (stereo not given),inactive: 6.24%
9,COc1cc(OC)cc(C(=O)NCC2(N3CCOCC3)CCCCC2)c1,inactive: 3.76%
10,CCOc1ncccc1C(=O)NCC1(N2CCOCC2)CCCCC1,inactive: 3.73%
11,CC(C)(C)OC(=O)N1CCC(Nc2ccccc2)CC1,inactive: 5.5%
12,O=C(NCC1(N2CCOCC2)CCCCC1)c1cc2ccccc2o1,inactive: 3.32%
13,CCOC(=O)N1CCC(Nc2ccc(OC)cc2)CC1,inactive: 4.83%
14,O=C(OC1CN2CCC1CC2)C1c2ccccc2Oc2ccccc21 (stereo not given),inactive: 6.64%
15,COc1ccc(C(=O)NCC2(N3CCCCC3)CCCCC2)c(OC)c1OC,inactive: 1.09%
16,COc1ccc(NC2CCN(CCc3ccccc3)CC2)c(OC)c1,inactive: 3.2%
17,COc1ccc(NC2CCN(C(=O)OC(C)(C)C)CC2)cc1,inactive: 1.94%
18,CN1CCN(CCOC(=O)C(O)(c2ccccc2)c2ccccc2)CC1,inactive: 2.39%
19,O=C(NCC1(N2CCOCC2)CCCCC1)c1cc(=O)[nH]c2ccccc12,inactive: 2.47%
20,O=C(NCC1(N2CCCCC2)CCCCC1)c1cccc([N+](=O)[O-])c1,inactive: 1.62%
21,N#CC1(Nc2ccccc2)CCN(CCc2ccccc2)CC1,inactive: 2.69%
22,CN1CCC(Nc2cccc(F)c2)CC1,inactive: 1.19%
23,CN(C)c1cccc(C(=O)NCC2(N3CCCCC3)CCCCC2)c1,inactive: 2.97%
24,COc1ccc(CN(CCCl)CCCl)cc1Cl,inactive: 3.31%
25,CC(C)c1ccc(NC2CCN(C(=O)OC(C)(C)C)CC2)cc1,inactive: 1.82%
